scFv variants of Ab-14 (heavy chain) against a SARS-CoV-2 spike peptide

The measurements come from Li et al. 2023 (doi:10.1038/s41467-023-39022-2) through the FLAb antibody collection.

Antigen: PDVDLGDISGINAS, a 14-residue peptide of the SARS-CoV-2 spike HR2 region.

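The starting antibody came from a phage panning campaign against this peptide. The variants were designed computationally from a first round of random CDR variants and then made and measured. Their group label is 14H_GP_Gen (GP: Gaussian process model; Gen: genetic algorithm; a sequence that several methods proposed may carry one label only). The scFvs were displayed on barcoded MATa yeast, the peptide on MATalpha yeast. Mating (16 h, 30 °C) was followed by selection of diploids and sequencing of their barcodes. Each replicate has its own calibration line, from reference interactions of the BCL2 family. Mating was done six times.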

Parent scFv Ab-14: VH joined to VL by three GGGGS repeats. Changes lie in the heavy chain CDRs alone.
VH: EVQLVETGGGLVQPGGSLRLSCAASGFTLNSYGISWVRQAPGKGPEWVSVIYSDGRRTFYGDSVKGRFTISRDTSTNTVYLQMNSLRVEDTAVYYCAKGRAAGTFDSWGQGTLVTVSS
VL: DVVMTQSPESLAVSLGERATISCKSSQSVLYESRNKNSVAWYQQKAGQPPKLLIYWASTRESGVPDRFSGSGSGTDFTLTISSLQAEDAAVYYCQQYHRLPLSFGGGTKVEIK

Changes read parent residue, position, new residue, counted from the first residue of the VH shown. The read-out is the apparent dissociation constant on a log10 scale (nM): the lower, the stronger. "nd" marks a missing value. The strain was present, yet no cells mated with the target were sequenced in that replicate, which points to weak or no binding.

changes	log10 Kd, replicates	control signals
T28H+G61A+A101N	0.81 / 1.05 / 0.29 / 1.36 / 0.18 / 0.79	0/18
T28D+R100Q+A101T+S107C	nd / 1.88 / 0.96 / 1.67 / 1.55 / 1.21	0/18
T28D+S31E+A101E+S107T	0.00 / 0.16 / 0.06 / -0.07 / -0.19 / -0.23	0/18
T28E+S31E+A101L+S107T	0.95 / 0.43 / 1.02 / 0.60 / 0.40 / 0.27	0/18
T28N+S63P+R100K+A101T	nd / 0.24 / 0.44 / 0.64 / 0.90 / 0.66	0/18
G26S+T28D+R56K+A101T	0.76 / 0.81 / 0.75 / 0.28 / 0.36 / 0.73	2/18 (2.42)
T28N+R100T+A101Q	nd / nd / nd / nd / nd / nd	0/18
T28E+G61A+S63D+R100E	0.65 / 0.14 / 0.22 / -0.31 / 0.09 / -0.20	1/18 (1.36)
T28D+G61Q+A101Q	0.01 / -0.19 / 0.39 / 0.11 / -0.24 / 0.15	0/18
T28W+S31E+G61I+R100N	2.74 / 1.51 / 1.41 / 1.30 / 1.56 / 1.08	0/18
T28E+S53A+R100Q+S107D	0.22 / 0.70 / -0.36 / -0.02 / 0.26 / 0.83	0/18
T28E+G61V+R100K+A101N	nd / 0.80 / 1.50 / nd / nd / 0.94	1/18 (1.34)
T28E+G61Q+R100D	nd / nd / nd / nd / nd / nd	0/18
G26K+T28S+S31E+R100K	nd / nd / nd / nd / nd / nd	0/18
G26M+T28D+R100N+A101E	1.60 / 1.25 / 1.77 / 1.08 / 0.95 / 1.75	0/18
T28N+R100Q+S107N	nd / nd / nd / nd / 1.32 / nd	0/18
T28D+G61Q+S63D+R100N	0.03 / 0.02 / -0.14 / 0.14 / 0.40 / 0.38	0/18
T28S+T58W+F59A	nd / 1.35 / nd / 2.95 / 2.05 / 1.59	1/18 (2.43)
T28D+G61A+S63E+R100K	0.44 / -0.30 / -0.15 / -0.10 / -0.22 / 0.13	0/18
T28D+R56K+G61D+R100K	nd / nd / nd / nd / nd / 3.05	1/18 (2.77)
T28D+S63R+R100E	0.50 / 0.51 / 0.23 / 0.56 / 0.87 / 0.75	0/18
T28E+G61A+R100W+A101M	0.39 / 0.93 / 0.37 / 0.48 / 0.42 / 0.67	0/18
G26S+T28D+R100Q+A101T	2.13 / 1.44 / 1.16 / 1.81 / 1.68 / 2.85	0/18
T28S+S53A+R100E+S107K	-0.26 / -1.09 / -1.32 / -1.55 / -1.08 / -0.70	0/18
T28E+S31D+A101N	-0.36 / 0.45 / -0.68 / -0.01 / 0.16 / 1.66	0/18
T28D+G61I+R100N+S107A	0.12 / -0.46 / -0.25 / -0.40 / -0.36 / 0.11	0/18
T28N+G61A+R100K+A101E	0.15 / 0.03 / 0.06 / 0.01 / 0.57 / 0.32	0/18
T28E+S31E+S63P+A101T	0.11 / 0.31 / 0.29 / 0.31 / 0.20 / 0.31	0/18
T28E+S31E+R100T	0.72 / 1.06 / 0.72 / 1.07 / 1.02 / 1.68	0/18
G26M+R100Q+A101E+S107T	1.33 / 1.20 / 2.64 / 0.76 / 1.14 / 2.47	0/18
T28D+G61T+R100H	nd / nd / nd / nd / nd / nd	0/18
T28E+S53A+S63Q	nd / nd / nd / nd / nd / nd	0/18
T28D+G61A+S63M+R100N	1.08 / 0.69 / 0.31 / -0.46 / 0.43 / 0.59	1/18 (1.34)
T28D+S53A+A101T	-0.42 / -0.61 / -0.56 / -0.62 / -0.67 / -0.43	0/18
G26M+T28D+F59A+A101Q	0.75 / 0.43 / 0.46 / 0.32 / 0.31 / 0.55	1/18 (1.78)
T28D+R100A+A101E	0.49 / 0.56 / 0.17 / 0.05 / 0.29 / 0.19	0/18
T28S+G61D+R100K+A101Q	1.77 / nd / 1.91 / 1.49 / nd / 2.07	0/18
T28D+A101E+S107A	-0.01 / -0.08 / -0.20 / -0.10 / -0.28 / 0.00	0/18
N30E+R100Q+A101E	1.02 / 1.04 / 1.54 / 0.84 / 0.73 / 0.93	1/18 (2.11)
T28E+R100H+S107T	1.25 / 0.87 / 0.98 / 0.68 / 0.84 / 1.05	1/18 (2.41)
T28D+A101E+S107E	0.55 / 0.00 / 0.31 / -0.19 / 0.03 / 0.51	0/18
G26P+T28E+S53A+R100K	1.34 / 1.72 / nd / 1.25 / nd / 1.55	0/18
T28D+G61A+R100K+S107C	2.39 / 2.30 / nd / nd / 1.68 / 1.78	2/18 (1.91)
T28S+R100L+A101N	nd / nd / nd / nd / nd / nd	1/18 (0.04)

The range of this assay differs from that of the first round, and the authors advise against merging the two. The authors' rule: three or more of the six replicates give a measured affinity, fewer mean a poor binder. As a blank, each scFv also met three strains without target: over all heavy chain designs, 1% of these pairings were detected, typically at 2.08 and seldom below 0.84. For each scFv, signals with the empty controls are counted beside the result, with their mean in brackets.